Sequences of proteins named here, by UniProt entry; tags and fusion partners are left off. Residues count along the entry.
UniProt P28843, 38-760 limits assumed: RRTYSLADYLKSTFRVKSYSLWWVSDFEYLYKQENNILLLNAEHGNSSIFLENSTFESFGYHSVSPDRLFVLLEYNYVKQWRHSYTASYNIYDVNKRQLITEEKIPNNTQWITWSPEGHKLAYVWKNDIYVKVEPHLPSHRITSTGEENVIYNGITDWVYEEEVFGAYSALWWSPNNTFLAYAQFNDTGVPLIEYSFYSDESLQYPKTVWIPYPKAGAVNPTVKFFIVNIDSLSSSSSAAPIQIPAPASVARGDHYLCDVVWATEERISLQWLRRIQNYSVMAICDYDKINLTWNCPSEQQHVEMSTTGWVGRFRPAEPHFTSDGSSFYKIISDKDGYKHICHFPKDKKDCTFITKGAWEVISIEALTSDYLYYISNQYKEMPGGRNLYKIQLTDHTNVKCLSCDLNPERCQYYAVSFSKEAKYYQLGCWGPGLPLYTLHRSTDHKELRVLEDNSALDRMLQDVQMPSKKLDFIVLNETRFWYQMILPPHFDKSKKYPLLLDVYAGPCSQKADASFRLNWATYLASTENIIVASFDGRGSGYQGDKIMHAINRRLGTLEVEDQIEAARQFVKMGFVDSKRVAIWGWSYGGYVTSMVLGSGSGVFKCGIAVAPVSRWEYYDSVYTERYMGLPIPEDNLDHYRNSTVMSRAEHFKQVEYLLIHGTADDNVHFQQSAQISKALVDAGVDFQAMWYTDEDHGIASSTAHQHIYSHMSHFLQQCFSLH

In US11046701B2, “Salt of cetagliptin, preparation method thereof, pharmaceutical composition, and use thereof” (CGENETECH (SUZHOU, CHINA) CO., LTD., priority 2018, dated 2021):

Target: serum DPPIV (Mus musculus, UniProt P28843)
Assay: Long-term administration on DIO mice: inhibition of serum DPPIV
Assay type: in vivo, C57BL16 mice
Set-up: from tissue; host or cells: serum of diet-induced obese C57BL mice after 28 days of oral dosing
Conditions: read-out: inhibition rate against DPPIV (serum)
Excerpt: Table 18 was a total data table of the metabolic parameters.

N[C@@H](CC(=O)N1CCn2c(nnc2C(F)(F)F)C1)Cc1cc(F)c(F)cc1F [Sitagliptin phosphate, reference compound]
inhibition at 30 mg/kg: 66.4%
